Measured values as given in ChEMBL document CHEMBL3272314, “Sturcture-activity relationship of daunorubicin and its peptide derivatives” (J Med Chem, 1976).

Legend:
Salmonidae [1] = experiment: Binding affinity to salmon sperm DNA assessed as first order dissociation rate at pH 7.8 by stop-flow technique in presence of 21 mM Na+ relative to pH 6.2
Salmonidae [2] = experiment: Binding affinity to salmon sperm DNA assessed as first order dissociation rate at pH 7.8 by stop-flow technique in presence of 201 mM Na+ relative to 1 mM Na+ ionic strength
Salmonidae [3] = experiment: Binding affinity to salmon sperm DNA assessed as first order dissociation rate at pH 7.8 by stop-flow technique in presence of 201 mM Na+ relative to daunorubicin complex

Row | SMILES | Ratio (Salmonidae [1]) | Ratio (Salmonidae [2]) | Ratio (Salmonidae [3])
1 | COc1cccc2c1C(=O)c1c(O)c3c(c(O)c1C2=O)C[C@@](O)(C(C)=O)C[C@@H]3O[C@H]1C[C@H](NC(=O)CNC(=O)CN(C)C)[C@H](O)[C@H](C)O1 | 1.25 | 4.98 | 5.35
2 | CCCN(CCC)CC(=O)N[C@H]1C[C@H](O[C@H]2C[C@](O)(C(C)=O)Cc3c(O)c4c(c(O)c32)C(=O)c2c(OC)cccc2C4=O)O[C@@H](C)[C@H]1O | 1.24 | 5.75 | 5.9
3 | COc1cccc2c1C(=O)c1c(O)c3c(c(O)c1C2=O)C[C@@](O)(C(C)=O)C[C@@H]3O[C@H]1C[C@H](NC(=O)CN(C)C)[C@H](O)[C@H](C)O1 | 1.37 | 4.33 | 4.06
